Reference: ChEMBL document CHEMBL1151945 (J Med Chem, 2009)

Chains of the proteins cited; added tags and fusions are not shown. Lines headed by an entry give the natural chain unless they say otherwise; changes in a name come on top.
UniProt P04818: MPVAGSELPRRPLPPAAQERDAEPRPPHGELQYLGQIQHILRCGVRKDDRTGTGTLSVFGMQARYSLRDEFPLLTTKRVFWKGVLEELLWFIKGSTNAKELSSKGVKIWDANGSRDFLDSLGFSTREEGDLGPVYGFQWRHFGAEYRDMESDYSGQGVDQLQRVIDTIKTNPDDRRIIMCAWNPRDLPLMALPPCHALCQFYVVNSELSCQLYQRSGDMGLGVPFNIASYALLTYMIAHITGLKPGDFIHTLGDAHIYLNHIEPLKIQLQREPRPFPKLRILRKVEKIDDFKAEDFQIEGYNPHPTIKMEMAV

Molecular target: Thymidylate synthase (Homo sapiens, UniProt P04818)

SMILES: CCc1sc2nc(N)[nH]c(=O)c2c1Sc1ccncc1
- IC50: 280 nM
